Experimental data published in patent publication US20190209472A1, “FORMULATIONS FOR DERMAL DELIVERY OF POLYMER CONJUGATES OF INDOLOCARBAZOLE COMPOUNDS WITH REDUCED EXPOSURE” (Sienna Biopharmaceuticals, Inc., priority 2017, published 2019).

How the values were obtained:
[1] = Phase 1b maximal use study: plasma pharmacokinetics of SNA-120; format: in vivo, human; conditions: for Cmax: read-out: Cmax of the 1 subject above 2.5 ng/mL
Protocol: This is a multicenter, open-label, Phase 1b study designed to evaluate the PK with maximal use of 0.5% w/w SNA-120 ointment (see Table 1), as measured by circulating plasma levels of SNA-120 in men and women aged ≥18 years who have at least moderate (e.g., moderate to severe) pruritus associated with at least moderate (e.g., moderate to severe) psoriasis vulgaris (PV) covering at least 20% body surface area (BSA). SNA-120 was evaluated as a topical, non-steroidal ointment to treat itch (pruritus) associated with psoriasis. SNA-120 was designed to achieve high local drug concentration in the target tissue while minimizing systemic exposure for patients. SNA-120 directly targets the peripheral itch pathway in the psoriatic plaque.
Approximately 30 eligible subjects will receive 0.5% w/w SNA-120 ointment (2 mg/cm^2) proportional to approximately 35 mg active drug at each application for a subject with at least 20% BSA affected, administered twice daily over 4 weeks to the indicated areas in the Treatment Area. The “Treatment Area” is defined as the BSA (including the face, scalp, intertriginous, and genital areas) exclusive of the mucosa, palms, and soles. The “Affected Areas” to be treated within the Treatment Area shall include: 1) all psoriasis (e.g., plaques) present in the Treatment Area at Baseline; 2) any new or recurrent areas of psoriasis that may develop during the study; and 3) the original plaque area, even in the event that the psoriasis (erythema, induration, scale) resolves and the lesions are no longer clearly visible (aside from hyper/hypo pigmentation). Subjects should continue to apply study drug to current active plaques, resolved/resolving plaques (residual hyper/hypopigmentation), or newly appearing plaques for the full 4 weeks of treatment, always covering a minimum of 20% BSA.
Serial blood draws for PK analysis will be obtained approximately the same time of day on Study Days 1 and 29. On those days, blood draws will be collected after each nominal ECG extraction time point. Predose blood samples on Days 1, 8, 15, and 29 should be taken within 1 hour prior to treatment administration start time. Administration may be performed by the study staff so that the subject can remain at rest.
Pharmacokinetics—Blood: Serial blood draws for PK analysis will be obtained approximately the same time of day for Study Days 1 and 29. The predose blood samples on Days 1, 8, 15, and 29 should be taken within 1 h prior to treatment administration start time. On Days 1 and 29, blood draws will be collected after each nominal ECG extraction time point; the actual times of collection will be recorded in the eCRF. Administration may be performed by the study staff so that the subject can remain at rest. Single PK sample blood draws with occur on Days 8 and 15 and should be within 1 hour prior to treatment administration start time.
For all subjects, blood sampling will be performed under controlled conditions to determine the PK profile of SNA-120 from 0 to 12 hours postdose (after the end of the SNA-120 application). Blood samples will be collected at Days 1 and 29 for PK determination of SNA-120 plasma level at time=predose, and 0.5, 0.75, 1, 2, 4, 8, and 12 hours after the end of the SNA-120 application. The predose and 0.5, 0.75, and 1-hour blood samples for PK determination should be collected within 5 minutes after SNA-120 administration. The 2, 4, and 8-hour PK blood samples should be collected within 15 minutes of the nominal collection time and the 12-hour PK blood sample should be collected within 30 minutes of the nominal collection time.

[2] = not given; remark: listed apart in the source
[3] = Earlier systemic and topical toxicological studies and clinical experience (incl. cream formulation)

Substance: (9S, 10R, 12R)-10-(3′-mPEG2000-1′,3′-oxazolidine-2′,4′-dione)-2,3,9,10,11,12-hexahydro-9-methyl-1-oxo-9,12-epoxy-1H-diindolo[1,2,3-fg:3′,2′,1′-k,l]pyrrolo[3,4-i][1,6] benzodiazocine] [CT327]
- Stability to light (exposure to artificial daylight fluorescent lamp): causes degradation
- Stability to pH (neutral and alkaline pH): causes degradation
- Aqueous stability (previously acquired stability data): poor aqueous stability
- Stability to temperature (room temperature to 40° C. to 60° C.): progressive increase in degradation rate
- Cmax of the 1 subject above 2.5 ng/mL ([1]; Day 1): 5.04 ng/mL
- Subjects with low (less than 2.5 ng/mL) detectable levels of SNA-120 in the plasma ([1]; Day 1): 30.0 % of subjects
- % of subjects with peak plasma SNA-120 <2.50 ng/mL ([1]; Day 1 (N = 30)): 30.0%
- % of subjects with peak plasma SNA-120 below quantitation limit ([1]; Day 1 (N = 30)): 66.7%
- % of subjects with peak plasma SNA-120 ≥2.50 ng/mL ([1]; Day 1 (N = 30)): 3.3%
- number of subjects (n) with peak plasma SNA-120 <2.50 ng/mL ([1]; Day 1 (N = 30)): 9
- number of subjects (n) with peak plasma SNA-120 below quantitation limit ([1]; Day 1 (N = 30)): 20
- number of subjects (n) with peak plasma SNA-120 ≥2.50 ng/mL ([1]; Day 1 (N = 30)): 1
- Peak Plasma SNA-120 Concentrations ([1]; Day 1 (N = 30), subjects Below Quantitation Limit (BQL; 0.500 ng/mL plasma), BID topical 0.5% ointment): <0.500 ng/mL
- Peak Plasma SNA-120 Concentrations ([1]; Day 1 (N = 30), subjects with detectable peak <2.50 ng/mL (approximately 1 nM)): 0.500 to 1.51 ng/mL
- Peak Plasma SNA-120 Concentrations ([1]; Day 1 (N = 30), subjects with peak ≥2.50 ng/mL): 5.04 ng/mL
- Subjects with detectable levels of SNA-120 in the plasma ([1]; Day 1, 10 out of 30 subjects): 33.3%
- Subjects with no detectable levels of SNA-120 in the plasma ([1]; Day 1, 0.5% w/w ointment twice daily, maximal use): 66.7 % of subjects
- Cmax ([1]; Day 1): 2.05 nM
- Cmax of the 1 subject above 2.5 ng/mL ([1]; Day 29): 4.64 ng/mL
- Subjects with low (less than 2.5 ng/mL) detectable levels of SNA-120 in the plasma ([1]; Day 29): 28.6 % of subjects
- Subjects with no detectable levels of SNA-120 in the plasma ([1]; Day 29): 67.9 % of subjects
- % of subjects with peak plasma SNA-120 <2.50 ng/mL ([1]; Day 29 (N = 28)): 28.6%
- % of subjects with peak plasma SNA-120 below quantitation limit ([1]; Day 29 (N = 28)): 67.9%
- % of subjects with peak plasma SNA-120 ≥2.50 ng/mL ([1]; Day 29 (N = 28)): 3.6%
- number of subjects (n) with peak plasma SNA-120 <2.50 ng/mL ([1]; Day 29 (N = 28)): 8
- number of subjects (n) with peak plasma SNA-120 below quantitation limit ([1]; Day 29 (N = 28)): 19
- number of subjects (n) with peak plasma SNA-120 ≥2.50 ng/mL ([1]; Day 29 (N = 28)): 1
- Peak Plasma SNA-120 Concentrations ([1]; Day 29 (N = 28), subjects Below Quantitation Limit (BQL; 0.500 ng/mL plasma), BID topical 0.5% ointment): <0.500 ng/mL
- Peak Plasma SNA-120 Concentrations ([1]; Day 29 (N = 28), subjects with detectable peak <2.50 ng/mL (approximately 1 nM)): 0.583 to 0.902 ng/mL
- Peak Plasma SNA-120 Concentrations ([1]; Day 29 (N = 28), subjects with peak ≥2.50 ng/mL): 4.64 ng/mL
- Subjects with detectable levels of SNA-120 in the plasma ([1]; Day 29, 9 out of 28 subjects): 32.1%
- Cmax ([1]; Day 29): 1.89 nM
- Post-baseline blood PK samples with detectable levels of SNA-120 (>0.500 ng/mL) ([1]; of 489 samples): 13.3%
- Post-baseline blood PK samples with detectable levels of SNA-120 (>0.500 ng/mL), number ([1]; of 489 samples): 65
- Maximum number of subjects with a detectable level of SNA-120 at any post-baseline PK sampling timepoint ([1]; out of 30): 6
- Accumulation of SNA-120 in the plasma ([1]; repeated BID topical application): no accumulation
- Systemic exposure (in words) ([1]; twice daily topical application under maximal use conditions): minimal to no systemic exposure
- Solubility of CT327 in single solvents, Comments ([2]; Benzyl alcohol): Excellent solubility
- Solubility of CT327 in single solvents, Comments ([2]; Benzyl benzoate): Excellent solubility
- Solubility of CT327 in single solvents, Results % w/w ([2]; Caprylic/capric triglycerides): <0.5% w/w
- Solubility of CT327 in single solvents, Results % w/w ([2]; Cyclomethicone): <0.5% w/w
- Solubility of CT327 in single solvents, Results % w/w ([2]; Diethyl sebacate): <0.5% w/w
- Solubility of CT327 in single solvents, Results % w/w ([2]; Diisopropyl adipate): <0.5% w/w
- Solubility of CT327 in single solvents, Results % w/w ([2]; Dimethyl isosorbide): ≥5% w/w
- Solubility of CT327 in single solvents, Comments ([2]; Ethanol (190 proof)): Excellent solubility
- Solubility of CT327 in single solvents, Results % w/w ([2]; Hexylene glycol): <0.5% w/w
- Solubility of CT327 in single solvents, Results % w/w ([2]; Isopropyl myristate): <0.5% w/w
- Solubility of CT327 in single solvents, Results % w/w ([2]; Isostearic acid): <0.5% w/w
- Solubility of CT327 in single solvents, Results % w/w ([2]; Isostearyl alcohol): <0.5% w/w
- Solubility of CT327 in single solvents, Comments ([2]; Lactic acid): Excellent solubility
- Solubility of CT327 in single solvents, Results % w/w ([2]; Lactic acid): ≥10% w/w
- Solubility of CT327 in single solvents, Results % w/w ([2]; Myristyl lactate): <0.5% w/w
- Solubility of CT327 in single solvents, Results % w/w ([2]; N-Methyl pyrrolidone): ≥10% w/w
- Solubility of CT327 in single solvents, Results % w/w ([2]; Octyldodecanol): <0.5% w/w
- Solubility of CT327 in single solvents, Results % w/w ([2]; Oleyl alcohol): <0.5% w/w
- Solubility of CT327 in single solvents, Results % w/w ([2]; PEG 400): ~0.5% w/w
- Solubility of CT327 in single solvents, Results % w/w ([2]; Propylene glycol): ~1% w/w
- Solubility of CT327 in single solvents, Results % w/w ([2]; Transcutol): ≥2% w/w
- Solubility ([2]; in ethanol, benzyl alcohol and water): Extremely soluble
- Systemic absorption ([3]; in vivo): poorly systemically absorbed
- Safety and tolerability ([3]; systemic and topical toxicological studies and clinical experience): safe and well tolerated

Where two headings read alike, the source gives them in different places.
